Measurements published in patent US12139488B2, “Pyrido[3,2-d]pyrimidine compounds uses thereof for treating a proliferative disease” (Universite de Montreal, priority 2021, dated 2024).

The chains behind the UniProt entries cited, without tags or fusion partners.
UniProt P15056, whole entry: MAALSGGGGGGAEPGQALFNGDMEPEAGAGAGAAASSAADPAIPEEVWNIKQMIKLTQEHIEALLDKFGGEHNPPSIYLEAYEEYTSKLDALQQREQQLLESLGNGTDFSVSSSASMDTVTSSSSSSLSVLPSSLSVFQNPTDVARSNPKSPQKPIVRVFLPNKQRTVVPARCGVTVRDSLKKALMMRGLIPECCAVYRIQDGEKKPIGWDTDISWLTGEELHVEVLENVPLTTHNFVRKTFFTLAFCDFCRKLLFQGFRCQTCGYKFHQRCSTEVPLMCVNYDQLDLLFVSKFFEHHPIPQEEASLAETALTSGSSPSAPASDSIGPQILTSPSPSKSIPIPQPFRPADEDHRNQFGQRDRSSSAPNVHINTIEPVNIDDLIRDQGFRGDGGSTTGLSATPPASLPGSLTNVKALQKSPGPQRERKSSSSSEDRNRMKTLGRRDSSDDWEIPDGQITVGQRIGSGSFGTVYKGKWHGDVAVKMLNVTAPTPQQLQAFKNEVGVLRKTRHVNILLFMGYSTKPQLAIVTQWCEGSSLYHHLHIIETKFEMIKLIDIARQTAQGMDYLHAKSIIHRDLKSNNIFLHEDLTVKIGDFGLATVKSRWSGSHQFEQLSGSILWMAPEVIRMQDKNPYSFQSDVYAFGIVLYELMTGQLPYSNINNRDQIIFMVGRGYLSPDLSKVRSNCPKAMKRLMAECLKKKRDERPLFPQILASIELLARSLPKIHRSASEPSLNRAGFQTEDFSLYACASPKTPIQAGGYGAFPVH
UniProt P04049, whole entry: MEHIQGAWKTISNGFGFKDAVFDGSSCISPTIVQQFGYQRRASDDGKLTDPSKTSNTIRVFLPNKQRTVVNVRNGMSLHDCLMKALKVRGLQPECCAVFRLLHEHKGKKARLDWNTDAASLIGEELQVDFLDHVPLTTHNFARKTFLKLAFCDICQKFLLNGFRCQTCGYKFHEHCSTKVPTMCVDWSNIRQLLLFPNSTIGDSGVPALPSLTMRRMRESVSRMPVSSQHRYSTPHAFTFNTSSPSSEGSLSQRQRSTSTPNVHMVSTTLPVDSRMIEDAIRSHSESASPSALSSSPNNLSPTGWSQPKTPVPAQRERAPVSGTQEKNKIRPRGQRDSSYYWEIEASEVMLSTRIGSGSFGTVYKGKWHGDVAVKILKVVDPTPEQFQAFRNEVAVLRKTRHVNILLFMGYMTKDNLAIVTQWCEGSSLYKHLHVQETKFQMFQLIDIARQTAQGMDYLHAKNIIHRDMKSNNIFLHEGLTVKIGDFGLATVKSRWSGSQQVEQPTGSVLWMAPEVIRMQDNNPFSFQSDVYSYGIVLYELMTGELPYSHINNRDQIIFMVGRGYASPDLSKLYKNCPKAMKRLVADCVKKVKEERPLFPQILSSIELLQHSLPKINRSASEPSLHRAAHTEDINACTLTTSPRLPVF

Columns and labels:
BRAF = BRAF (Homo sapiens (Human), UniProt P15056); test: BRAF kinase activity assay (ADP-Glo)
CRAF = CRAF (Homo sapiens, UniProt P04049); test: CRAF kinase activity assay (ADP-Glo)
[1] = tested on: pERK in HCT-116 cells (KRAS G13D); test: Phospho-ERK inhibition (AlphaLISA SureFire Ultra p-ERK 1/2), HCT116; details: for HCT116 pERK % Ymin (lowest value of the IC50 curve): Ymin above −20% = minimal or no paradoxical activation
Summary of the method: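 Overnight-seeded cells received compound for an hour before lysis, and phospho-ERK1/2 was then measured with an AlphaLISA SureFire Ultra kit. Percent inhibition relative to vehicle, after trametinib background subtraction, gave IC50 by curve fitting.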

[2] = read-out: Kinase IC50 (nM), BRAF biochemical kinase assay, BRAF
[3] = read-out: Kinase IC50 (nM), CRAF biochemical kinase assay, CRAF
[4] = read-out: HCT116 pERK IC50, HCT116 cells
[5] = read-out: Kinase IC50 (nM) BRAF
[6] = read-out: Kinase IC50 (nM) CRAF
[7] = read-out: HCT116 pERK IC50, HCT116 cells, class symbol before the bracket
[8] = read-out: Kinase IC50 (nM) BRAF, Table 5
[9] = read-out: Kinase IC50 (nM) CRAF, Table 5
[10] = lowest value of the curve, HCT116, Table 5
[11] = read-out: HCT116 pERK IC50, HCT116 cells, Table 5
[12] = lowest % inhibition value of the IC50 curve, HCT116
[13] = read-out: HCT116 pERK IC50 in μM, HCT116 cells, 1 h treatment

CS(=O)(=O)C1CCN(c2cccc3c2ncn3-c2ccc3ncnc(Nc4c(F)ccc(NS(=O)(=O)c5cccc(Cl)c5Cl)c4F)c3n2)CC1
IC50 (BRAF; [2]): < 1 nM | IC50 (CRAF; [3]): < 10 nM | HCT116 pERK % Ymin (lowest value of the IC50 curve) ([1]; HCT116 cells): −17% | IC50 [1, 4]: < 0.5 µM

O=S(=O)(Nc1ccc(F)c(Nc2ncnc3ccc(-n4cnc5c(N6CCC(CO)CC6)cccc54)nc23)c1F)c1cccc(Cl)c1Cl
IC50 (BRAF; [2]): 1 to 10 nM | IC50 (CRAF; [3]): < 10 nM | HCT116 pERK % Ymin (lowest value of the IC50 curve) ([1]; HCT116 cells): −7% | IC50 [1, 4]: < 0.5 µM

Cc1c(F)cccc1S(=O)(=O)Nc1ccc(F)c(Nc2ncnc3ccc(-n4nc(C(=O)N5C6CCC5COC6)c5ccccc54)nc23)c1F
IC50 (BRAF; [5]): 1 to 10 nM | IC50 (CRAF; [6]): > 50 nM | HCT116 pERK Ymin % ([1]; HCT116 cells, Ymin in brackets): −9.6% | IC50 [1, 7]: < 0.5 µM

O=C(c1cn(-c2ccc3ncnc(Nc4c(F)ccc(NS(=O)(=O)c5cccc(Cl)c5Cl)c4F)c3n2)c2ccccc12)N1CCNCC1
IC50 (BRAF; read-out: Kinase IC50 (nM) BRAF, tested form: formic acid salt): < 1 nM | IC50 (CRAF; read-out: Kinase IC50 (nM) CRAF, tested form: formic acid salt): < 10 nM | HCT116 pERK Ymin % ([1]; HCT116 cells, Ymin in brackets, tested form: formic acid salt): 1.4% | IC50 ([1]; read-out: HCT116 pERK IC50, HCT116 cells, class symbol before the bracket, tested form: formic acid salt): 0.5 to 1 µM

Cc1c(Cl)cccc1S(=O)(=O)Nc1ccc(F)c(Nc2ncnc3ccc(-n4nnc5ccccc54)nc23)c1F
IC50 (BRAF; [5]): 1 to 10 nM | IC50 (CRAF; [6]): < 10 nM | HCT116 pERK Ymin % ([1]; HCT116 cells, Ymin in brackets): 3.7% | IC50 [1, 7]: < 0.5 µM

CN(C)CCN(C)S(=O)(=O)c1cn(-c2ccc3ncnc(Nc4c(F)ccc(NS(=O)(=O)c5cccc(Cl)c5Cl)c4Cl)c3n2)c2ccccc12
IC50 (BRAF; [8]): < 1 nM | IC50 (CRAF; [9]): < 10 nM | HCT116 pERK Ymin % [1, 10]: −15% | IC50 [1, 11]: < 0.5 µM

O=S(=O)(Nc1ccc(F)c(Nc2ncnc3ccc(-n4cc(CO)nn4)nc23)c1F)c1cccc(Cl)c1Cl
IC50 (BRAF; [2]): 1 to 10 nM | IC50 (CRAF; [3]): 10 to 50 nM | HCT116 pERK % Ymin (lowest value of the IC50 curve) ([1]; HCT116 cells): −5% | IC50 [1, 4]: 1 to 10 µM

Cc1c(Cl)cccc1S(=O)(=O)Nc1ccc(F)c(Nc2ncnc3ccc(-n4cc(C(=O)N(C)CCN(C)C)c5c(N)cccc54)nc23)c1F
IC50 (BRAF; read-out: Kinase IC50 (nM) BRAF, tested form: formate): < 1 nM | IC50 (CRAF; read-out: Kinase IC50 (nM) CRAF, tested form: formate): > 50 nM | HCT116 pERK Ymin % ([1]; HCT116 cells, Ymin in brackets, tested form: formate): 7.9% | IC50 ([1]; read-out: HCT116 pERK IC50, HCT116 cells, class symbol before the bracket, tested form: formate): < 0.5 µM

Cc1c(S(=O)(=O)Nc2ccc(F)c(Nc3ncnc4ccc(-n5cnc6ccccc65)nc34)c2F)ccc(Cl)c1F
IC50 (CRAF; [6]): > 50 nM | HCT116 pERK Ymin % [1, 12]: 0.4% | IC50 [1, 13]: 1 to 10 µM

Nc1cccc2c1ncn2-c1ccc2ncnc(Nc3cccc(NS(=O)(=O)c4cccc(Cl)c4Cl)c3F)c2n1
IC50 (BRAF; [8]): 1 to 10 nM | IC50 (CRAF; [9]): 10 to 50 nM | HCT116 pERK Ymin % [1, 10]: −2% | IC50 [1, 11]: < 0.5 µM

COCCN(C)C(=O)c1nn(-c2ccc3ncnc(Nc4c(F)ccc(NS(=O)(=O)c5cccc(F)c5C)c4F)c3n2)c2ccccc12
IC50 (BRAF; [5]): < 1 nM | IC50 (CRAF; [6]): < 10 nM | HCT116 pERK Ymin % ([1]; HCT116 cells, Ymin in brackets): −1.2% | IC50 [1, 7]: < 0.5 µM

COc1ccc(S(=O)(=O)Nc2ccc(F)c(Nc3ncnc4ccc(-n5cnc6ccccc65)nc34)c2F)c(C)c1Cl
IC50 (BRAF; [5]): 1 to 10 nM | IC50 (CRAF; [6]): < 10 nM | HCT116 pERK Ymin % [1, 12]: −5% | IC50 [1, 13]: < 0.5 µM

Nc1cccc2c1ncn2-c1ccc2ncnc(Nc3c(F)ccc(NS(=O)(=O)c4cccc(Cl)c4Cl)c3Cl)c2n1
IC50 (BRAF; [8]): > 10 nM | IC50 (CRAF; [9]): 10 to 50 nM | HCT116 pERK Ymin % [1, 10]: −10% | IC50 [1, 11]: < 0.5 µM

O=C1CCCC12CCN(c1cccc3c1ncn3-c1ccc3ncnc(Nc4c(F)ccc(NS(=O)(=O)c5cccc(Cl)c5Cl)c4F)c3n1)CC2
IC50 (BRAF; [2]): 1 to 10 nM | IC50 (CRAF; [3]): 10 to 50 nM | HCT116 pERK % Ymin (lowest value of the IC50 curve) ([1]; HCT116 cells): 2% | IC50 [1, 4]: < 0.5 µM

O=S(=O)(Nc1ccc(F)c(Nc2ncnc3ccc(-n4cnc5c(N6CC(CCO)C6)cccc54)nc23)c1F)c1cccc(Cl)c1Cl
IC50 (BRAF; [2]): 1 to 10 nM | IC50 (CRAF; [3]): 10 to 50 nM | HCT116 pERK % Ymin (lowest value of the IC50 curve) ([1]; HCT116 cells): 10% | IC50 [1, 4]: < 0.5 µM

Cc1c(F)cccc1S(=O)(=O)Nc1ccc(F)c(Nc2ncnc3ccc(-n4nc(C(=O)N5CCO[C@@H](CO)C5)c5ccccc54)nc23)c1F
IC50 (BRAF; [5]): < 1 nM | IC50 (CRAF; [6]): 10 to 50 nM | HCT116 pERK Ymin % ([1]; HCT116 cells, Ymin in brackets): 4.6% | IC50 [1, 7]: < 0.5 µM

Cc1c(Cl)cccc1S(=O)(=O)Nc1ccc(F)c(Nc2ncnc3ccc(-n4nc(C(=O)N5CCN(C)CC5)cc4C)nc23)c1F
IC50 (BRAF; [5]): < 1 nM | IC50 (CRAF; [6]): > 50 nM | HCT116 pERK Ymin % ([1]; HCT116 cells, Ymin in brackets): −8.7% | IC50 [1, 7]: < 0.5 µM

CN(C)CC(=O)c1cn(-c2ccc3ncnc(Nc4c(F)ccc(NS(=O)(=O)c5ccccc5Cl)c4F)c3n2)c2ccccc12
IC50 (BRAF; [5]): 1 to 10 nM | IC50 (CRAF; [6]): 10 to 50 nM | HCT116 pERK Ymin % ([1]; HCT116 cells, Ymin in brackets): −5% | IC50 [1, 7]: 1 to 10 µM

Cc1c(F)cccc1S(=O)(=O)Nc1ccc(F)c(Nc2ncnc3ccc(-n4nc(C(=O)N5CCO[C@H](CO)C5)c5ccccc54)nc23)c1F
IC50 (BRAF; [5]): < 1 nM | IC50 (CRAF; [6]): 10 to 50 nM | HCT116 pERK Ymin % ([1]; HCT116 cells, Ymin in brackets): 11% | IC50 [1, 7]: < 0.5 µM

Where two headings read alike, the source gives them in different places.
